{"source": "patent US20160159879A1", "about": "(UNIVERSITY OF NORTH CAROLINA AT CHAPEL HILL, published 2016)", "molecular_target": "Aprotinin (UniProt P00974)"}
{"substance": "Trypsin", "values": [{"measurement": "cleavage of the fluorogenic substrate BGAR-MCA by trypsin", "result": "2 U/ml aprotinin which inhibited trypsin activity by ˜100%"}]}
